Target: Alpha-2B adrenergic receptor (Homo sapiens, UniProt P18089)

By UniProt entry, the sequences of proteins in these tests, tags left out.
UniProt P18089, whole entry: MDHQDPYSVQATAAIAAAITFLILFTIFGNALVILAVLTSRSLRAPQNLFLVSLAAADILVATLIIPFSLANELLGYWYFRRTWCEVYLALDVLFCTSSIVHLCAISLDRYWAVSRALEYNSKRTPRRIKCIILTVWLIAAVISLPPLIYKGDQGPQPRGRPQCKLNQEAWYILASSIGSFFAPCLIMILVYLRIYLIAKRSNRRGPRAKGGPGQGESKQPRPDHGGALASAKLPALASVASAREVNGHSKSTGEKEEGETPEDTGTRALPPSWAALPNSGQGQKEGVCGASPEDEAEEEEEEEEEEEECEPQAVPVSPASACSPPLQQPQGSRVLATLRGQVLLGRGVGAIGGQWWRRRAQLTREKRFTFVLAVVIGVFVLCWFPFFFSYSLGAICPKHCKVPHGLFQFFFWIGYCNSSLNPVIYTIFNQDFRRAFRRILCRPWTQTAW

Compound `O=C1NCN(c2ccccc2)C12CCN(CC1COc3ccccc3O1)CC2` (stereo unspecified) [8-(2,3-Dihydro-benzo[1,4]dioxin-2-ylmethyl)-1-phenyl-1,3,8-triaza-spiro[4.5]decan-4-one] has a Ki of 1.57 nM.

Source: BindingDB's records for PubMed 7996470 (University of Michigan, 1994)
